## AlphaSeq binding of Ab-14 heavy chain variants to a spike HR2 peptide

Target peptide (SARS-CoV-2 spike, HR2 region): PDVDLGDISGINAS

Parent scFv Ab-14: VH joined to VL by a 15-residue (Gly4Ser)3 linker. Changes lie in the heavy chain CDRs alone.
VH: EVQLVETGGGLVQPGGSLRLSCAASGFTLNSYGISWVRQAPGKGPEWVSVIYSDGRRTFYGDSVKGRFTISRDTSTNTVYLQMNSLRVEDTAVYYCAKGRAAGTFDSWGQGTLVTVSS
VL: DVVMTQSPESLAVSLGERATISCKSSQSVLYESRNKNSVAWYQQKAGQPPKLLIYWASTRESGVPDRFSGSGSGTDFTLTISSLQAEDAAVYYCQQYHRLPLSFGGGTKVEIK

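Phage display of a naive human antibody library on the peptide gave the parent. The variants were designed computationally from a first round of random CDR variants and then made and measured. Several design methods are mixed in this list. Affinity was read by AlphaSeq, a pooled yeast mating assay with surface-displayed partners. Binding brings cells together so that they mate, and sequencing counts the barcode pairs among the diploids. Each replicate has its own calibration line, from reference interactions of the BCL2 family. Each pool was mated in six replicate cultures.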

The parent's heavy chain CDRs are GFTLNSYGIS, VIYSDGRRTFYGDSVK, GRAAGTFDS; each variant's own CDRs replace them letter for letter. Numbers give log10(Kd / nM), so 0 is 1 nM and 3 is 1 µM. Smaller is tighter. Averages over replicates are reported, and they cover detected replicates only. "not detected" means that the variant was in the library but no mating with the target was seen in any replicate; the authors take this as a sign of poor binding, and no number exists. The authors averaged sequences with at least three values out of six and counted those with two or fewer as poor binders. The parent sequence was in this pool as ten entries: three were never detected, three once, and four in most replicates, with averages from 0.34 to 2.37. Empty control strains, which show no peptide, gave a signal in 1% of pairings with all heavy chain designs; the median was 2.08 and 95% of these signals were weaker than 0.84. No background was subtracted. Values of this round are not directly comparable with the first-round values of the same sequences.

CDR-H1,CDR-H2,CDR-H3,"mean, log10 nM",detected
GFHLNSYGIS,VIYSDGRRTFYKDSVK,GQTAGTFDS,0.40,1 of 6
GRTLNDYGIS,VIYSDGRRTQYIDSVK,GRAAGTFDS,not detected,0 of 6
GFTLNDYGIS,VIYSDGYRTFYGDQVK,GRAAGTFDS,1.51,2 of 6
GFDLNEYGIS,VIYADGLRTYYADSVK,GNVAGTFDI,-0.76,6 of 6
GFTLNEYGIS,VIYSDGRRTQYGDSVK,GRAAGTFDS,0.80,6 of 6
GFDLDEYGIS,VIYADGLRTAYSDSVK,GNVAGTFDV,-1.25,3 of 6
GFELNSYGIS,VIYADGRRTFYGDSVK,GQAAGTFDG,0.25,2 of 6
GFDLDEYGIS,VIYADGMRTFYADSVK,GNQAGTFDS,-0.53,6 of 6
GFTLESYGIS,VIYADGRRTFYHDSVK,GRAAGTFDS,0.19,6 of 6
GFDLNEYGIS,VIYADGRRTAYIDSVK,GETAGTFDK,-0.01,6 of 6
GFDLNEYGIS,VIYADGKRTFYSDSVK,GNNAGTFDV,-0.19,6 of 6
GFTLNSYGIS,VIYSDGRRTFYGDSVK,GALAGTFDS,1.22,6 of 6
GDGLKEYGIS,VIYADGMRESYVKDVK,GQTGGTFVL,not detected,0 of 6
GFNLNSYGIS,VIYSDGRRTFYGDNVK,GRNAGTFDS,1.82,6 of 6
GFTLNLYGIS,VIYADGRRTEYGDSVK,GRAAGTNKS,not detected,0 of 6
GFDLDEYGIS,VIYADGMRTAYSDSVK,GNNAGTFDQ,0.02,6 of 6
GFSLNEYGIS,VIYSDGRRTFYEDSVK,GRAAGTFDS,0.73,2 of 6
GFSIDEYGIS,VIYADGTRTAVATSVK,GQLAAYFDK,not detected,0 of 6
GFTLDSYGIS,VIYSDGRRTMYGDSVK,GRIAGTFDS,1.54,6 of 6
GFDLNEYGIS,VIYADGMRTAYADSVK,GNQAGTFDL,0.01,5 of 6
GFDLNSVGIS,VIYSDGRRTFYGDSVK,GRAAGWFNS,not detected,0 of 6
GFDINEYGIS,VIYADGMRTAYADSVK,GEAAGTFDV,-0.29,6 of 6
GFDLNEYGIS,VIYADGVRTQYADSVK,GENAGTFDI,0.79,6 of 6
GFTLNSYGIS,VIYSDGRRTFYGDSVK,GKQAGNFDS,not detected,0 of 6
GFTLNSYMIS,VIYADGRRVAYINSVK,GSAMGTFDS,4.09,1 of 6
KDDLEAYGIS,VIYADGQRAAYVDKVK,GQTGGMFDQ,2.19,1 of 6
GFDVDEYGIS,VIYADGKRTSYQADVK,GSQVGNALV,not detected,0 of 6
GFTLNEYGIS,GIYSDGFRTFYGDSVK,IRAAGTFDS,not detected,0 of 6
GFDLDEYGIS,VIYADGRRTFYADSVK,GEAAGTFDT,-0.24,6 of 6
GFQLNEYGIS,VIYSDGRRTFYGDSVK,GRHAGTFDT,0.89,5 of 6
GMSLGEYGIS,VIYADGERVAYTNNFK,GVMAGTGDV,not detected,0 of 6
GFTLNSYGIS,VIYSDGRRTFYIDQVK,GRAAGTFDK,not detected,0 of 6
GFTLDSYGIS,VIYSDGRRTFYGDSVK,GRQAGTFDR,not detected,0 of 6
GFDLDEYGIS,VIYADGMRTAYTDDVK,GNVAGTFDL,-0.34,6 of 6
GFDLDEYGIS,VIYADGMRSYYADSVK,GNVAGTFDV,-0.03,6 of 6
GFTLNSYGIS,VIYSDGRRTFYADSVK,GQVAGTFDS,0.44,6 of 6
GFDLNEYGIS,VIYADGRRTFYIDSVK,GEAAGTFDV,-0.28,6 of 6
GFTLMSYGIS,VIYSDGRRTFYQDSVK,GRAAGTFDS,0.82,2 of 6
GFTLKSYGIS,VIYSDGRRTFYDDSVK,GKEAGTFDS,0.63,6 of 6
GFDLNEYGIS,VIYADGSRTAYADDVK,GNVAGTFDQ,-0.25,6 of 6
GFNLNEYGIS,VIYADGRRTAYADSVK,GQVAGTFDV,-0.46,6 of 6
GFDLNEYGIS,VIYADGVRTAYADSVK,GSNAGTFDQ,-0.68,6 of 6
GFDLNEYGIS,VIYADGMRTAYSDDVK,GSNAGTFDI,-0.45,6 of 6
GFDLNEYGIS,VIYADGVRTFYADSVK,GNEAGTFDM,-0.23,6 of 6
GFDLNEYGIS,VIYADGRRTAYVDSVK,GNQAGTFDQ,-0.10,6 of 6
GFQLNSYGIS,VIYSDGRRTHYGDSVK,GRAAGTFDS,1.94,2 of 6
GFRLNSYGIS,VIYSDGKRTFYGDSVK,GRAAGTFSS,not detected,0 of 6
GFDLNSYGIS,VIYSDGRRTFYGDSVK,GRQAGTFDT,-0.22,6 of 6
GFDLNSYGIS,VIYSDGYRTFYGDSVK,GRTAGTFDS,0.32,6 of 6
GFDLDEYGIS,VIYADGMRTFYADSVK,GTNAGTFDA,-0.14,6 of 6
GFDINSYGIS,VIYSDGYRTFYGDSVK,GQAAGTFDS,1.34,6 of 6
GFTLNEYGIS,VIYSDGRRTFYGDSVK,GKAAGTFIS,not detected,0 of 6
GFTLNSYGIS,VIYSDGMRTFYGDSVR,GTAAGTFDS,0.23,6 of 6
GFTLDSYGIS,VIYSDGRRTFYGDSVK,GNAAGTFDS,0.87,6 of 6
GFQLNSYGIS,VIYSDGRRTFYQDQVK,GQAAGTFDS,not detected,0 of 6
GFQLNDYGIS,VIYSDGRRTQYIDHVK,GKAAGTFDS,not detected,0 of 6
GFDLNEYGIS,VIYADGRRTFYSDSVK,GQLAGTFDD,-0.41,6 of 6
GFNLNSYGIS,VIYSDGRRTFYADMVK,GQAAGTFDD,not detected,0 of 6
GFDLNEYGIS,VIYADGMRTAYSDDVK,GQVAGTFDV,-0.25,6 of 6
GFTLNEYGIS,VIYSDGRRTFYTDSVK,GRFAGTFSS,1.75,6 of 6
GFSLNEYGIS,VIYSDGRRTFYGDSVK,GRMAGTFIS,not detected,0 of 6
GFDLNEYGIS,VIYADGVRTSYADSVK,GNNAGTFDV,not detected,0 of 6
GFDLNEYGIS,VIYADGMRTAYADDVK,GQNAGTFDQ,-0.56,6 of 6
GQRLNSYGIS,VIYSDGYRTFYGDSVK,GRAAGTFDS,not detected,0 of 6
GFTLDSYGIS,VIYSDGRRTFYSDSVK,GRAGGTFDS,1.02,6 of 6

Source: Li et al. 2023 (doi:10.1038/s41467-023-39022-2), MIT Lincoln Laboratory and A-Alpha Bio; data file from the FLAb repository.